PubChem BioAssay (NCI)
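Compound exposure: 48 hours, 5 concentrations, 96-well plates. GI50 is the concentration that inhibits growth by half. TGI denotes the concentration required for complete inhibition of growth.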

How the values were obtained:
Assay in all cases: DTP human tumour cell line panel, 48 h
786-0 renal = system: 786-0 renal
ACHN renal = system: ACHN renal
OVCAR-4 ovarian = system: OVCAR-4 ovarian
NCI-H460 lung = system: NCI-H460 lung
NCI-H522 lung = system: NCI-H522 lung
LOX IMVI melanoma = system: LOX IMVI melanoma
HOP-62 NSCLC = system: HOP-62 NSCLC
A498 renal = system: A498 renal
CCRF-CEM leukemia = system: CCRF-CEM leukemia
HL-60(TB) leukemia = system: HL-60(TB) leukemia
OVCAR-3 ovarian = system: OVCAR-3 ovarian
TK-10 renal = system: TK-10 renal
NCI-H226 lung = system: NCI-H226 lung
U251 CNS = system: U251 CNS
UACC-62 melanoma = system: UACC-62 melanoma
RPMI-8226 leukemia = system: RPMI-8226 leukemia
HCT-116 colon = system: HCT-116 colon
MDA-MB-435 = system: MDA-MB-435
NCI/ADR-RES ovarian = system: NCI/ADR-RES ovarian
SN12C renal = system: SN12C renal
K-562 leukemia = system: K-562 leukemia
MDA-MB-231 breast = system: MDA-MB-231 breast
SR leukemia = system: SR leukemia
MCF7 breast = system: MCF7 breast
HOP-92 NSCLC = system: HOP-92 NSCLC
NCI-H322M lung = system: NCI-H322M lung
BT-549 breast = system: BT-549 breast
NCI-H23 lung = system: NCI-H23 lung
SNB-19 CNS = system: SNB-19 CNS
COLO 205 colon = system: COLO 205 colon
SF-268 CNS = system: SF-268 CNS
CAKI-1 renal = system: CAKI-1 renal
HS 578T breast = system: HS 578T breast
HCT-15 colon = system: HCT-15 colon
SK-OV-3 ovarian = system: SK-OV-3 ovarian
KM12 colon = system: KM12 colon
A549 NSCLC = system: A549 NSCLC
HCC-2998 colon = system: HCC-2998 colon
SF-539 CNS = system: SF-539 CNS
MOLT-4 leukemia = system: MOLT-4 leukemia
MALME-3M melanoma = system: MALME-3M melanoma
UO-31 renal = system: UO-31 renal
T-47D breast = system: T-47D breast
SF-295 CNS = system: SF-295 CNS
DU-145 prostate = system: DU-145 prostate
SK-MEL-28 melanoma = system: SK-MEL-28 melanoma
M14 melanoma = system: M14 melanoma
SK-MEL-2 melanoma = system: SK-MEL-2 melanoma
SK-MEL-5 melanoma = system: SK-MEL-5 melanoma
PC-3 prostate = system: PC-3 prostate
IGROV1 ovarian = system: IGROV1 ovarian
SNB-75 CNS = system: SNB-75 CNS
RXF 393 renal = system: RXF 393 renal
SW-620 colon = system: SW-620 colon
HT29 colon = system: HT29 colon
OVCAR-8 ovarian = system: OVCAR-8 ovarian
OVCAR-5 ovarian = system: OVCAR-5 ovarian

CCOc1ccc(N(CCCl)CCCl)cc1
GI50 (786-0 renal): 3.2 µM
TGI (786-0 renal): 10.8 µM
GI50 (ACHN renal): 1.28 µM
TGI (ACHN renal): 7.07 µM
GI50 (OVCAR-4 ovarian): 19.1 µM
TGI (OVCAR-4 ovarian): 66.2 µM
GI50 (NCI-H460 lung): 2.06 µM
TGI (NCI-H460 lung): 33.9 µM
GI50 (NCI-H522 lung): 6.37 µM
TGI (NCI-H522 lung): 28.6 µM
GI50 (LOX IMVI melanoma): 4.78 µM
TGI (LOX IMVI melanoma): 31.2 µM
GI50 (HOP-62 NSCLC): 12.4 µM
TGI (HOP-62 NSCLC): 80.6 µM
GI50 (A498 renal): 13.9 µM
TGI (A498 renal): 32.9 µM
GI50 (CCRF-CEM leukemia): 2.15 µM
TGI (CCRF-CEM leukemia): 78.5 µM
GI50 (HL-60(TB) leukemia): 3.01 µM
TGI (HL-60(TB) leukemia): 29.2 µM
GI50 (OVCAR-3 ovarian): 17.8 µM
TGI (OVCAR-3 ovarian): 50.8 µM
GI50 (TK-10 renal): 22.2 µM
TGI (TK-10 renal): 66 µM
GI50 (NCI-H226 lung): 6.76 µM
TGI (NCI-H226 lung): > 100 µM
GI50 (U251 CNS): 3.85 µM
TGI (U251 CNS): 29 µM
GI50 (UACC-62 melanoma): 4.77 µM
TGI (UACC-62 melanoma): 21.4 µM
GI50 (RPMI-8226 leukemia): 15.5 µM
TGI (RPMI-8226 leukemia): 57.5 µM
GI50 (HCT-116 colon): 8.44 µM
TGI (HCT-116 colon): 24.9 µM
GI50 (MDA-MB-435): 13.3 µM
TGI (MDA-MB-435): 35 µM
GI50 (NCI/ADR-RES ovarian): 9.39 µM
TGI (NCI/ADR-RES ovarian): > 100 µM
GI50 (SN12C renal): 2.97 µM
TGI (SN12C renal): > 100 µM
GI50 (K-562 leukemia): 10.3 µM
TGI (K-562 leukemia): > 100 µM
GI50 (MDA-MB-231 breast): 25.2 µM
TGI (MDA-MB-231 breast): 83.3 µM
GI50 (SR leukemia): 1.31 µM
TGI (SR leukemia): 65.1 µM
GI50 (MCF7 breast): 1.72 µM
TGI (MCF7 breast): > 100 µM
GI50 (HOP-92 NSCLC): 5.53 µM
TGI (HOP-92 NSCLC): 38.3 µM
GI50 (NCI-H322M lung): 56.5 µM
TGI (NCI-H322M lung): > 100 µM
GI50 (BT-549 breast): 10.9 µM
TGI (BT-549 breast): 38.1 µM
GI50 (NCI-H23 lung): 6.19 µM
TGI (NCI-H23 lung): 86.4 µM
GI50 (SNB-19 CNS): 7.72 µM
TGI (SNB-19 CNS): > 100 µM
GI50 (COLO 205 colon): 12.6 µM
TGI (COLO 205 colon): 35.1 µM
GI50 (SF-268 CNS): 4.58 µM
TGI (SF-268 CNS): 80 µM
GI50 (CAKI-1 renal): 2.04 µM
TGI (CAKI-1 renal): 20.8 µM
GI50 (HS 578T breast): 17.8 µM
TGI (HS 578T breast): 61.7 µM
GI50 (HCT-15 colon): 13.7 µM
TGI (HCT-15 colon): 91.3 µM
GI50 (SK-OV-3 ovarian): 10.4 µM
TGI (SK-OV-3 ovarian): > 100 µM
GI50 (KM12 colon): 23.7 µM
TGI (KM12 colon): 96.3 µM
GI50 (A549 NSCLC): 5.58 µM
TGI (A549 NSCLC): > 100 µM
GI50 (HCC-2998 colon): 20.4 µM
TGI (HCC-2998 colon): 84.4 µM
GI50 (SF-539 CNS): 2.15 µM
TGI (SF-539 CNS): 7.61 µM
GI50 (MOLT-4 leukemia): 3.08 µM
TGI (MOLT-4 leukemia): 52.1 µM
GI50 (MALME-3M melanoma): 15.4 µM
TGI (MALME-3M melanoma): 38.3 µM
GI50 (UO-31 renal): 5.41 µM
TGI (UO-31 renal): 47.3 µM
GI50 (T-47D breast): 8.23 µM
TGI (T-47D breast): > 100 µM
GI50 (SF-295 CNS): 3.71 µM
TGI (SF-295 CNS): 34.4 µM
GI50 (DU-145 prostate): 5.85 µM
TGI (DU-145 prostate): > 100 µM
GI50 (SK-MEL-28 melanoma): 15.4 µM
TGI (SK-MEL-28 melanoma): 51.2 µM
GI50 (M14 melanoma): 5.28 µM
TGI (M14 melanoma): 42.7 µM
GI50 (SK-MEL-2 melanoma): 20.5 µM
TGI (SK-MEL-2 melanoma): 39.9 µM
GI50 (SK-MEL-5 melanoma): 6.49 µM
TGI (SK-MEL-5 melanoma): 21.4 µM
GI50 (PC-3 prostate): 15.6 µM
TGI (PC-3 prostate): > 100 µM
GI50 (IGROV1 ovarian): 14.4 µM
TGI (IGROV1 ovarian): > 100 µM
GI50 (SNB-75 CNS): 6 µM
TGI (SNB-75 CNS): 49.9 µM
GI50 (RXF 393 renal): 3.42 µM
TGI (RXF 393 renal): 15.8 µM
GI50 (SW-620 colon): 11.4 µM
TGI (SW-620 colon): > 100 µM
GI50 (HT29 colon): 16.3 µM
TGI (HT29 colon): > 100 µM
GI50 (OVCAR-8 ovarian): 7.33 µM
TGI (OVCAR-8 ovarian): 98.1 µM
GI50 (OVCAR-5 ovarian): 20.9 µM
TGI (OVCAR-5 ovarian): 66.6 µM
